Data reported in PubChem BioAssay (NCATS).
“And” between values parts separate entries of the source, which are not always exact repeats. Equal values may be shown once. Only a part is listed here, and it is no random draw. Records with an inconclusive call do not appear. The source made the active and inactive calls. Unless noted, calls come from the whole dose curve; as a rule, active = well fitted curve in the direction sought with a large enough effect; inconclusive = small, poorly fitted or top-dose-only effect, or another doubt; inactive = no such curve, though single readings can be large; an effect the other way counts as inactive or inconclusive.

By UniProt entry, the sequences of proteins in these tests, tags left out. Residues count along the entry.
UniProt O75604, whole entry: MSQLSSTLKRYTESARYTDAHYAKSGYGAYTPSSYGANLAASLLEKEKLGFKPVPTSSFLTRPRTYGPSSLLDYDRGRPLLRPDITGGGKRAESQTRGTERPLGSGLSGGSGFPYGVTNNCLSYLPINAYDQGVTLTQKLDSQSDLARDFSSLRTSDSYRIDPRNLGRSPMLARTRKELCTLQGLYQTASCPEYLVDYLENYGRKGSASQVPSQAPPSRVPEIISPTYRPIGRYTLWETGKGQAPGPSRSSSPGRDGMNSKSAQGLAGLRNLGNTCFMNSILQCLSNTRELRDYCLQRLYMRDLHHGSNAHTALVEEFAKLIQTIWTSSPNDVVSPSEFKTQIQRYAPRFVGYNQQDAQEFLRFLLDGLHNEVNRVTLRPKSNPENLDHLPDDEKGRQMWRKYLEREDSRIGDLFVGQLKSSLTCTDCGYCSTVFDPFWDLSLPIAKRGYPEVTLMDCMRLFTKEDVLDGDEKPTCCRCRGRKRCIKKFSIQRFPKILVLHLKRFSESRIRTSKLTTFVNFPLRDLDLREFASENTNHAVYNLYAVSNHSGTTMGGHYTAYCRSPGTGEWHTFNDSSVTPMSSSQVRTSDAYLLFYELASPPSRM
UniProt P07550, whole entry: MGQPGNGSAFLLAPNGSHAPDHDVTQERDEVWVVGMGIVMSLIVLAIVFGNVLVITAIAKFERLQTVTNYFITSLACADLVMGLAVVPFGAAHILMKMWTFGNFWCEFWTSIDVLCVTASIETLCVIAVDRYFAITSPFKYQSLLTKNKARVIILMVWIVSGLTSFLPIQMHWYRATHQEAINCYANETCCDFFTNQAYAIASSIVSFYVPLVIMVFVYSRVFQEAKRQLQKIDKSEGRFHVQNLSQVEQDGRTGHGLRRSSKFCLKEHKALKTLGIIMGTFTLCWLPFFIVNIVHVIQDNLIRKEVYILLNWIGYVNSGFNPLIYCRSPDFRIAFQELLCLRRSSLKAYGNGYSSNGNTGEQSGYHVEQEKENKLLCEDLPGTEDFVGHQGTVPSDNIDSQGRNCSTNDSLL
UniProt O89049, whole entry: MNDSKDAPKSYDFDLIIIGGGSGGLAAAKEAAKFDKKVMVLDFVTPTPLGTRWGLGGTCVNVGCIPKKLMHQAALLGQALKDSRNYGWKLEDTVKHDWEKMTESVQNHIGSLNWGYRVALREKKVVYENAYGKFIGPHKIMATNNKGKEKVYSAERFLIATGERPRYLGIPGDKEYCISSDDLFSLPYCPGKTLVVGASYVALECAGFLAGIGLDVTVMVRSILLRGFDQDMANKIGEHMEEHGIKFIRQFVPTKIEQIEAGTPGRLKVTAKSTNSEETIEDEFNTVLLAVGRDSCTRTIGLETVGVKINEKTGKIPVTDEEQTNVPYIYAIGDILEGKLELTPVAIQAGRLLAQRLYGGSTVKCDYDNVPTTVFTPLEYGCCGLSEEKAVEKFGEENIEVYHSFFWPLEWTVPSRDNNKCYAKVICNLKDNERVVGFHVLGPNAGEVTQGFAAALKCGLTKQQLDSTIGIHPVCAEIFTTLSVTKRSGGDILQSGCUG
UniProt Q99549, whole entry: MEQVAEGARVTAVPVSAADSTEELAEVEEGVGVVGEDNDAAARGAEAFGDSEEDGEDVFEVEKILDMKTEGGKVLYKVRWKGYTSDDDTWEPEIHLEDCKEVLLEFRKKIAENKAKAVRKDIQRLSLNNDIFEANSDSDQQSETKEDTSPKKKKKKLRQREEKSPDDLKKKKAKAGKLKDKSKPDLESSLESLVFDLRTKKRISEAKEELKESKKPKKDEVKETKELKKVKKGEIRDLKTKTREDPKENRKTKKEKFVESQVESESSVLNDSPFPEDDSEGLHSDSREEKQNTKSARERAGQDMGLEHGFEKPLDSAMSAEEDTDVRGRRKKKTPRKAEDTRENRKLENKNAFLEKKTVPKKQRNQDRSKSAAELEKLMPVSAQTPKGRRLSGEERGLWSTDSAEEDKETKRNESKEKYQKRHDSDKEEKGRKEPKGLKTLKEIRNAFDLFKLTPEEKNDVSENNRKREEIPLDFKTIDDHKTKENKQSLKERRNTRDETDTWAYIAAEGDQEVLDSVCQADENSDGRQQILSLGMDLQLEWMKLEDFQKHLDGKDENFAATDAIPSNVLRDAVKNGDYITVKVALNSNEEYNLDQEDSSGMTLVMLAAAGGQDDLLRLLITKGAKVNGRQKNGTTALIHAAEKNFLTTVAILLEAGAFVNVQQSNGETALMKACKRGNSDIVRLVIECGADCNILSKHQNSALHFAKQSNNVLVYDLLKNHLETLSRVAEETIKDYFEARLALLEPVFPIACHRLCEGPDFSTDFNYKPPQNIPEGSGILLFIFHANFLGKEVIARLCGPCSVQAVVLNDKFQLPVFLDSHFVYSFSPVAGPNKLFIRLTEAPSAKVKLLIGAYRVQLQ
UniProt P83916, whole entry: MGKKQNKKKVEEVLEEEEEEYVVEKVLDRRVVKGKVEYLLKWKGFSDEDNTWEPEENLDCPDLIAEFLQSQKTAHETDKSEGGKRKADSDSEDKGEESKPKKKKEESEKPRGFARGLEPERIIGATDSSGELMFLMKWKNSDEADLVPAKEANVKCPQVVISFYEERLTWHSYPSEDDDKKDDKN
UniProt Q6LX38, 1-543: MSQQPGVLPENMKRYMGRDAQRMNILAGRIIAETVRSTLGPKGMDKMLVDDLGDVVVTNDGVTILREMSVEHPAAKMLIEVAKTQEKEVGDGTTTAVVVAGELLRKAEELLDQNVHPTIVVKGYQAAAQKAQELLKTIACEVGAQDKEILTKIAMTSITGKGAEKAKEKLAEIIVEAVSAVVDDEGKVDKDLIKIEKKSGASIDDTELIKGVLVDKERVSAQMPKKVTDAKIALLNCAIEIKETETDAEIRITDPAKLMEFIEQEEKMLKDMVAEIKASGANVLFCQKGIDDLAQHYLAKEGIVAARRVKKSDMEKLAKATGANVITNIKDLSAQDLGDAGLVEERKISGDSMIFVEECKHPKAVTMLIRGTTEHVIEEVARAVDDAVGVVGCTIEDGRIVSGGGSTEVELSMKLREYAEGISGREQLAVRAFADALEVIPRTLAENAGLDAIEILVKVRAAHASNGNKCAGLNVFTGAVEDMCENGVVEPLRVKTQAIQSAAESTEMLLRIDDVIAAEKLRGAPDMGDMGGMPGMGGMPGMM
UniProt Q8NER1, whole entry: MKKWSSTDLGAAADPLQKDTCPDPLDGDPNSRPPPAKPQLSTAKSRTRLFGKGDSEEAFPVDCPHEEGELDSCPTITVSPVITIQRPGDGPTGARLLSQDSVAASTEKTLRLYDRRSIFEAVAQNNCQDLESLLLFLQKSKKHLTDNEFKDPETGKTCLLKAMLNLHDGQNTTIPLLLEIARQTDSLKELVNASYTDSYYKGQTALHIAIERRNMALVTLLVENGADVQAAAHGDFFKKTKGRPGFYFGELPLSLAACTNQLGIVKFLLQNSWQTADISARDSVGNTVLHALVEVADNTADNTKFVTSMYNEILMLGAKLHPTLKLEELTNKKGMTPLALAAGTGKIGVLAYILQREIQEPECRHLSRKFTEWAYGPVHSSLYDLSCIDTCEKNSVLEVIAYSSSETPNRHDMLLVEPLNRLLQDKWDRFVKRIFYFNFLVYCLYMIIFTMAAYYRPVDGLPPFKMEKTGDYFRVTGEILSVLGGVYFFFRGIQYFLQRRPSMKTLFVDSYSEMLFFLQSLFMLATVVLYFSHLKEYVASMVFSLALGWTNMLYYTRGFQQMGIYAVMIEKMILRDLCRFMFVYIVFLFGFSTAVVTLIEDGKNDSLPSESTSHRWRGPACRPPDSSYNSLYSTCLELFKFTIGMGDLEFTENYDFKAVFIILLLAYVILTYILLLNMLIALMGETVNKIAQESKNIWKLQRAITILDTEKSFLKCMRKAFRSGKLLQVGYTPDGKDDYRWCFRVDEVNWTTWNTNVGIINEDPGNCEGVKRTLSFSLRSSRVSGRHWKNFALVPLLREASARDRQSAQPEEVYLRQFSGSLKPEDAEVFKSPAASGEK
UniProt P21728, whole entry: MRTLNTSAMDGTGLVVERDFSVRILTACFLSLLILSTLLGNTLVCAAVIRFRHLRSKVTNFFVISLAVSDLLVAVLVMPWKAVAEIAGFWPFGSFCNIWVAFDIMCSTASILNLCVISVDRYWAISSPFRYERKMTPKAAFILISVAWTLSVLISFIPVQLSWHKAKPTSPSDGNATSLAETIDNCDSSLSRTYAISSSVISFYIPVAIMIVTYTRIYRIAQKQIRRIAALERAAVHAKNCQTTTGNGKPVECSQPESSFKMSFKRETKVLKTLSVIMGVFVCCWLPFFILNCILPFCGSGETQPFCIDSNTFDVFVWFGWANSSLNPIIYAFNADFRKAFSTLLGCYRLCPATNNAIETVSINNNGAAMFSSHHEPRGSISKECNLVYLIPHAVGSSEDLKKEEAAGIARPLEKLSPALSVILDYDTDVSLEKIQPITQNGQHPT

How the values were obtained:
[1] = molecular target: Ubiquitin carboxyl-terminal hydrolase 2 (Homo sapiens) (UniProt O75604); assay: qHTS Validation Assay for Inhibitors of Ubiquitin-specific Protease USP2a Using CHOP2 as the Reporter (AID 463106); details: USP2a cleavage of CHOP2 reporter, enzymatic; at 38.3 µM (top of the series);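 note: plate controls were DMSO for no effect and full inhibition by NEM for full effect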
Outline: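 10nM USP2 core + cpd, 30min RT; add 25nM Ub-CHOP2/25nM substrate; 60min RT; FI 485/531nm. Buffer Tris pH 8.0, CaCl2, BME, CHAPS. Norm. to NEM = 100% inhibition; time-zero read flags fluorescent artifacts.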

[2] = qHTS Validation Assay to Find Inhibitors of Chronic Active B-Cell Receptor Signaling (AID 485345; active = well fitted curve in the direction sought with a large enough effect in the main read-out, with a control signal flat, not every such curve was filed as active;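 note: 0% = untreated basal cells and 100% = 10 µM MG-132 proteasome inhibitor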); details: ABC-DLBCL cells, chronic BCR signaling reporter, CBG luciferase; at 46.1 µM (top of the series)
Outline: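 Read-out: ratio of filter-corrected green (IkappaBalpha fusion) to red (native) luciferase signal in doxycycline-induced TMD8 cells after 4 h at 37C. Titration spanned 46 uM–3 nM; Data were normalised to basal cells and 10 uM MG-132 wells.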

[3] = molecular target: Beta-2 adrenergic receptor (Homo sapiens) (UniProt P07550); assay: qHTS validation assay of beta-arrestin-biased ligands of beta2-adrenergic receptor (AID 485366); details: cell-based beta-arrestin recruitment to ADRB2, qHTS; at 46.1 µM (top of the series); note: 0% is about no effect
Source text: NIH Molecular Libraries Probe Production Network [MLPCN]
NIH Chemical Genomics Center [NCGC]
PI: Bryan Roth and Bob Lefkowitz
The concept of biased agonism is an emerging concept of molecular pharmacology which proposes that seven transmembrane receptors (7TMRs) or G protein-coupled receptors (GPCRs), exist in multiple signaling conformations and complexes and that ligands (either agonists or antagonists) can induce signaling biased responses for distinct signal transduction cascades.
Furthermore, accumulating evidence over the last decade has drawn attention to a novel function of beta-arrestins as signal transducers that scaffold various signaling molecules upon activation of 7TMRs. […]
Tango cells were dispensed into white, solid, tissue-culture-treated 1536-well plates at 1500 cells/well in DMEM, containing 1% fetal bovine serum (FBS). […] Plates were then incubated for 15 minutes at room temperature, and subsequently measured on a ViewLux plate reader for luminescent signal using a clear filter with a 10 second exposure and 2x binning. The %Activity was determined from the corrected luminescence values.
Concentration-response curves were fitted to the signals arising from the resulting luminescence. […]
Keywords: biased agonism, beta2-AR, beta-arrestin, GPCR, 7TMR, Tango, luminescence, MLSMR, MLPCN, NIH Roadmap, qHTS, NCGC

[4] = molecular target: Thioredoxin reductase 1, cytoplasmic (Rattus norvegicus) (UniProt O89049); assay: qHTS Assay for Substrates of Mammalian Selenoprotein Thioredoxin Reductase 1 (TrxR1) (AID 488772); details: purified TrxR1, NADPH consumption substrate assay; at 57.1 µM (top of the series);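 note: NADPH fluorescence in the first read after selenite addition and not the 8 min delta; 0% is about no effect; a drop in NADPH fluorescence below the no-compound background marks a TrxR1 substrate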
Outline: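 Quantitative HTS in Tris-HCl buffer at pH 7.5 with EDTA and Tween-20, using rat TrxR1, 400 uM NADPH and 400 uM selenite (final). A fall in initial NADPH fluorescence relative to background marked substrate behaviour.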

[5] = molecular target: M-phase phosphoprotein 8 (Homo sapiens) (UniProt Q99549); assay: qHTS Validation Assay for Inhibitors for MPP8 Chromodomain Interactions with Methylated Histone Tails (AID 488949); details: AlphaScreen MPP8 binding to H3K9me3 peptide; note: potency is the fitted concentration of half-maximal effect; nearly all actives have a fitted effect of over 55% in size
Source text: As our understanding of epigenetics expands, it is becoming clear that players in this field are potential targets for drug development. This area of epigenetic therapy has established applications for the treatment of cancer and neurological diseases. We have been involved in this field for a number of years and have performed high-throughput screens to identify the first small molecule inhibitors of protein methyltransferases. These methyltransferases target multiple substrates, and thus regulate many arms of an epigenetic pathway. The methylation of different substrates often generates docking sites for effector proteins that harbor binding domains (chromo, tudor, PHD, MBT and ANK repeats). It has been proposed that the binding sites generated for different proteins by these post-translational modifcations mediate downstream effects on chromatin. Consistent with this theory, di- and tri-methylation of histone H3K9 facilitates the binding of heterochromatin protein HP1. The HP1 protein harbors a chromodomain that is responsible for the methyl-dependent interaction between HP1 and lysine 9 of histone H3. […] Low-affinity protein-protein interactions (Kd in the single- to double-digit micromolar range) such as those discussed here have been very difficult to assay by traditional techniques such as fluorescence polarization or fluorescence resonance energy transfer. […]

[6] = molecular target: Chromobox protein homolog 1 (Homo sapiens) (UniProt P83916); assay: qHTS Validation Assay for Inhibitors of HP1-beta Chromodomain Interactions with Methylated Histone Tails (AID 488953); details: HP1-beta chromodomain / methylated histone peptide binding assay; note: potency is the fitted concentration of half-maximal effect; nearly all actives have a fitted effect of over 50% in size
[7] = molecular target: Methanococcus maripaludis chaperonin (MmCpn) (UniProt Q6LX38); assay: High-Throughput Screening for Modulators of Cytosolic Chaperonin Activity: MmCpn Primary Screen (AID 488978); details: MmCpn chaperonin refolding activity, biochemical qHTS; at 76.9 µM (top of the series);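 note: 50 nM MmCpn enzyme hydrolysing 30 µM ATP at 37 °C; 0% is about no effect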
Outline: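 ATPase activity of 50 nM MmCpn was assayed with 30 uM ATP, 10 minutes at 37C, after a 5 min compound preincubation at room temperature. ADP production was read as HTRF emission at 590 and 665 nm.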

[8] = molecular target: Transient receptor potential cation channel subfamily V member 1 (Homo sapiens) (UniProt Q8NER1); assay: HTS Assay for Compounds that Act as Enhancers of the Vanilloid Receptor 1 (AID 488979); details: TRPV1-expressing cells, enhancer of channel activity, stimulated with capsaicin at EC20; at 41.7 µM (top of the series); note: 0% is about no effect
Outline: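 Calcium influx kinetics via Fluo-8 (480/520 nm) in TRPV1-expressing cells, 2000/well cultured overnight at 35.5C. Compound-alone read 3 min (agonist phase), followed by EC20 capsaicin challenge for 2 min (enhancer phase).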

[9] = molecular target: D(1A) dopamine receptor (Homo sapiens) (UniProt P21728); assay: HTS Assay for Allosteric Agonists of the Human D1 Dopamine Receptor: Primary Screen for Agonists (AID 488981); details: D1 receptor-expressing cells, agonist cAMP readout; at 41.8 µM (top of the series); note: 0% is about no effect
Outline: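 Calcium flux in an inducible, force-coupled HEK293 Trex D1 line (overnight at 30 C): agonist mode is the 180 s kinetic read after compound; potentiator mode is the following 180 s read after dopamine at EC20.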

[10] = molecular target: D(1A) dopamine receptor (Homo sapiens) (UniProt P21728); assay: HTS Assay for Allosteric Agonists of the Human D1 Dopamine Receptor: Primary Screen for Potentiators (AID 488982); details: D1 receptor cells, potentiator mode, cAMP signal; at 8.37 µM (top of the series); note: 0% is about no effect

Structure (SMILES): N#[O+].[C-]#N.[C-]#N.[C-]#N.[C-]#N.[C-]#N.[Fe+2].[Na+].[Na+]
- activity, negative = inhibition [1]: inactive: -1.29%
- activity change [2]: inactive: 1.75%
- activation [3]: inactive: 0.144%
- activity change, negative = NADPH consumption [4]: inactive: -10.9%
- Potency [5]: active: 10 µM and active: 8.44 µM
- Potency [6]: active: 35.5 µM
- activity change, negative = inhibition [7]: inactive: 0.502%
- activity change, positive = enhancement [8]: inactive: -2.64%
- activation [9]: inactive: -0.74%
- activity, positive = potentiation [10]: inactive: -1.02%
